This assay deals with Opioid receptors; delta & kappa (Homo sapiens) (UniProt P41145+P41143). Put plainly: Selectivity ratio of kappa opioid receptor to that of delta opioid receptor in guinea pig brain membranes. In kind it is cell membranes. The note with it: Cavia porcellus; target entry is the homologue from another species.

Sequences of proteins named here, by UniProt entry; tags and fusion partners are left off. A change or cut given only in a name is not applied to a line headed by its entry.
UniProt P41145: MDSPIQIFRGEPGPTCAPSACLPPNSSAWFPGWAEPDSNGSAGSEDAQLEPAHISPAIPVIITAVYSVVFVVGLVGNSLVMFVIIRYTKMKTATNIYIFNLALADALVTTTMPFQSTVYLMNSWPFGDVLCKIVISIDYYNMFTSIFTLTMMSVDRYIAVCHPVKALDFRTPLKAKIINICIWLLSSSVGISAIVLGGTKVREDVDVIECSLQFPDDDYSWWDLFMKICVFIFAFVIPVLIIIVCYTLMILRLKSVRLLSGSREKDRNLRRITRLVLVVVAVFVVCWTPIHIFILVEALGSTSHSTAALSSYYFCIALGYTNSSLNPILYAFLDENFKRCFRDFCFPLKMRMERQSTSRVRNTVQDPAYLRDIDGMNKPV
UniProt P41143, whole entry, looked up: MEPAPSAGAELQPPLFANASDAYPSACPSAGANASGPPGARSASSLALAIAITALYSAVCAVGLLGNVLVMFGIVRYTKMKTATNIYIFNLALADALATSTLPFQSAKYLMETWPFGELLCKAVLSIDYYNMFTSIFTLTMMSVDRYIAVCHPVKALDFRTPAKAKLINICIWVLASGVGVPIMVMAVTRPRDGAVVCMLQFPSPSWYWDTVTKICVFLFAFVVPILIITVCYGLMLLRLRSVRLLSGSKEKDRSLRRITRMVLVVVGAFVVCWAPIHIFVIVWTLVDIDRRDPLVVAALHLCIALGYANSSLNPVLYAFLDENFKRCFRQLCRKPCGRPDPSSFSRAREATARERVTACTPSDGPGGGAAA

With `CN(C(=O)Cc1ccc(Cl)c(Cl)c1)C1CCCCC1N1CCCC1` (stereo unspecified), the Selectivity is 6900.

The record behind these values is ChEMBL document CHEMBL1134817, “Mixed kappa agonists and mu agonists/antagonists as potential pharmacotherapeutics for cocaine abuse: synthesis and opioid receptor binding affinity of N-substituted derivatives of morphinan” (Bioorg Med Chem Lett, 2001).
